{"sequences": {"note": "Amino acid sequences for entries named in this document (tags omitted).", "UniProt Q01827, whole entry P314T": "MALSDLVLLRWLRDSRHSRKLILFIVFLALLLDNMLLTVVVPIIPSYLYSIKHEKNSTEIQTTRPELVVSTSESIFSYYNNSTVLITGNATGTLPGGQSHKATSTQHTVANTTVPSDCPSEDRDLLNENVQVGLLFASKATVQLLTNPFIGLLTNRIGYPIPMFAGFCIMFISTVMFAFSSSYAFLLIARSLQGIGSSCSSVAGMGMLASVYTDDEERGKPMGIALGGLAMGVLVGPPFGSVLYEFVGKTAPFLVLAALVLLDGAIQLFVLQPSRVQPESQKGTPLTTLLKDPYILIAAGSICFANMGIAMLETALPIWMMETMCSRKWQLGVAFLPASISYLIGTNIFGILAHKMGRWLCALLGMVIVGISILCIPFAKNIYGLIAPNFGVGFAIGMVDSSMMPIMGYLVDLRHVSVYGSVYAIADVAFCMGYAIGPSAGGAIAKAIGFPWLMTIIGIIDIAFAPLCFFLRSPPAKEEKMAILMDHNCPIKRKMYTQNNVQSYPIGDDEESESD", "UniProt Q01827, whole entry G308P": "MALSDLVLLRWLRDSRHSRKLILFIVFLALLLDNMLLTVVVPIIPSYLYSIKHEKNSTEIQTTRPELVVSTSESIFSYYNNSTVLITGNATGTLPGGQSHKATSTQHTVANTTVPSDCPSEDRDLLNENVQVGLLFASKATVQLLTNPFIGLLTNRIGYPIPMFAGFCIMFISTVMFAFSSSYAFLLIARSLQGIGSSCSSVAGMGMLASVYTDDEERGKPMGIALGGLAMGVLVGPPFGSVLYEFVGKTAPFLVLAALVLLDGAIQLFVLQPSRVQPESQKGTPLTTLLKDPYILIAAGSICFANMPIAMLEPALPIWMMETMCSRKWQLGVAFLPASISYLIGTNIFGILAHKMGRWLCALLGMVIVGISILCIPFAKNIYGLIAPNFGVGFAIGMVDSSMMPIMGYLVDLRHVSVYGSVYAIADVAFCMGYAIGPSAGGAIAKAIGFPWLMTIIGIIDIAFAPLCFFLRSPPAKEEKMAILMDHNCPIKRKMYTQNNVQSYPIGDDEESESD", "UniProt Q01827, whole entry V41I": "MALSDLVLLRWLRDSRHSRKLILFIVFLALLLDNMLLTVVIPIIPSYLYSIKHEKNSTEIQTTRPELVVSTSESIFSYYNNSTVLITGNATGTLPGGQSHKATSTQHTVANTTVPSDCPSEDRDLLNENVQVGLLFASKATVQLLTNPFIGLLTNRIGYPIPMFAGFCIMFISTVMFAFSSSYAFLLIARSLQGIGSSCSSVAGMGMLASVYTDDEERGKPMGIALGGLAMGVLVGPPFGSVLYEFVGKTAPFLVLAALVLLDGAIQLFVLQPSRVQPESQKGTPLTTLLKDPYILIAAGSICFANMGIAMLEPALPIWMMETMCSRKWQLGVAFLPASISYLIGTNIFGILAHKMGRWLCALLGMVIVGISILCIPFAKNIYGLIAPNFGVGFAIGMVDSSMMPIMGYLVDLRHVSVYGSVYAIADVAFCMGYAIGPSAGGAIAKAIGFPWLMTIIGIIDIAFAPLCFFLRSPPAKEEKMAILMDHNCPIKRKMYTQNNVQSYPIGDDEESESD", "UniProt Q01827, whole entry V132G": "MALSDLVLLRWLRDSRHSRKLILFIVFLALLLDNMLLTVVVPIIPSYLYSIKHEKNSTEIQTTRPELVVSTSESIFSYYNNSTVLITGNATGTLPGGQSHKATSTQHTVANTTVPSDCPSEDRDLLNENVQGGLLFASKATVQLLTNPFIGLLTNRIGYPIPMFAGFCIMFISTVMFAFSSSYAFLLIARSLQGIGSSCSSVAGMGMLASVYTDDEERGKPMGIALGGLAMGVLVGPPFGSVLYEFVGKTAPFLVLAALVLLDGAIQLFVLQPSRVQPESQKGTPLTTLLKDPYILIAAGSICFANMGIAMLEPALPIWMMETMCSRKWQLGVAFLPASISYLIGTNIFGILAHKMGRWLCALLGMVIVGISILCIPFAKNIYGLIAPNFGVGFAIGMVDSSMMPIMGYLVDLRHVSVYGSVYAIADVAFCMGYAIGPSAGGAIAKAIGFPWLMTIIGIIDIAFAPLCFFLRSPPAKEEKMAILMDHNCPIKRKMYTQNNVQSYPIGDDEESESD", "UniProt Q01827, whole entry P314G": "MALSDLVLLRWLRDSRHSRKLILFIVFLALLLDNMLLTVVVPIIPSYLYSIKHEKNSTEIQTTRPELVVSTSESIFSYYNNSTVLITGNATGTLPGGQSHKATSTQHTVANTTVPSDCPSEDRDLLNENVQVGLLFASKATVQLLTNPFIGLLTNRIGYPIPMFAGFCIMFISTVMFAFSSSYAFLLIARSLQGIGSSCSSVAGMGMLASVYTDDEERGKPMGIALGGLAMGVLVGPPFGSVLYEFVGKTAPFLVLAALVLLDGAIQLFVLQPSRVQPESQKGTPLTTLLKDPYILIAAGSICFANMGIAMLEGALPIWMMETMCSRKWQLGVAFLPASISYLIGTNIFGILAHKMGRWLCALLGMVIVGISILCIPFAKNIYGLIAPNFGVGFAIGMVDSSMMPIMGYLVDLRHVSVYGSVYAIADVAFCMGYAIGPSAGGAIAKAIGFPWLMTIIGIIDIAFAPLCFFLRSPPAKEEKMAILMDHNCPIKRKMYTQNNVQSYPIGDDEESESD", "UniProt Q01827, whole entry V132A": "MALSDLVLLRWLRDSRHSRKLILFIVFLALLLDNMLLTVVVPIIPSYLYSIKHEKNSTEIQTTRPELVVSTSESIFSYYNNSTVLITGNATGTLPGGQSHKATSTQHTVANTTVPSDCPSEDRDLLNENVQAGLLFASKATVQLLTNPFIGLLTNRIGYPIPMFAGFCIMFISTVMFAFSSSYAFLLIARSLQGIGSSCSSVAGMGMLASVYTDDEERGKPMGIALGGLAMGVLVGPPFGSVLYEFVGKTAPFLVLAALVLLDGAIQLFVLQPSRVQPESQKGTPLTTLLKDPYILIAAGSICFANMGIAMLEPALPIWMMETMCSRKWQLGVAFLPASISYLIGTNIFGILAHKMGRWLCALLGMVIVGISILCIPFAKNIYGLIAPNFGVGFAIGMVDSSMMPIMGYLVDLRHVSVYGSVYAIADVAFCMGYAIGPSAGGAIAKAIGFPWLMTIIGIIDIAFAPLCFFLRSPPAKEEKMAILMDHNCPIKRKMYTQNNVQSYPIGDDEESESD", "UniProt Q01827, whole entry V41A": "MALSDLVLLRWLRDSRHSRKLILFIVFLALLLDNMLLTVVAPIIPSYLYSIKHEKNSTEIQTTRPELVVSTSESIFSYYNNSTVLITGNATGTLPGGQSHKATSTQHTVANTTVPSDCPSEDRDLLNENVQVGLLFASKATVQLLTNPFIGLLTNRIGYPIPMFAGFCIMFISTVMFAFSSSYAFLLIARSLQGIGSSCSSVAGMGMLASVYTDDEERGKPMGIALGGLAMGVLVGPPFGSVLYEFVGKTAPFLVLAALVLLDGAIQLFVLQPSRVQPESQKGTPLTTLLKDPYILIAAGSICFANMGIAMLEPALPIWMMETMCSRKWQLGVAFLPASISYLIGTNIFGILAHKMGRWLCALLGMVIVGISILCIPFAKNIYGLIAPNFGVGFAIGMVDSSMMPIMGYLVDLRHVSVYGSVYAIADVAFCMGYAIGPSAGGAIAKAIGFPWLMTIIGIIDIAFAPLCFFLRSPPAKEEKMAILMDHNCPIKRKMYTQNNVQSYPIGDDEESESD", "UniProt Q01827, whole entry P314L": "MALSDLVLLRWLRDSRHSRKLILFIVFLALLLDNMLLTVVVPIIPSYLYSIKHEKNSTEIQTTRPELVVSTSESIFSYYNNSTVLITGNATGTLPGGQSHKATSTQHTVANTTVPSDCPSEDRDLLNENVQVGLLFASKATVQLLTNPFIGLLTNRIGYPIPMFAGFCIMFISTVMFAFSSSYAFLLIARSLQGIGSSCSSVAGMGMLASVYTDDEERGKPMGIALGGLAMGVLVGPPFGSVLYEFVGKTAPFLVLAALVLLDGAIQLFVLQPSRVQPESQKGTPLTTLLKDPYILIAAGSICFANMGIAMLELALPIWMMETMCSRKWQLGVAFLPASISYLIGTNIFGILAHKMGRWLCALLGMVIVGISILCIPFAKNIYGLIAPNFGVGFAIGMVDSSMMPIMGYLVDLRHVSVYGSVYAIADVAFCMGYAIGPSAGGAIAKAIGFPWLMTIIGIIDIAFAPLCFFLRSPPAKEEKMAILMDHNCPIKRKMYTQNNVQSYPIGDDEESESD", "UniProt Q01827, whole entry V41F": "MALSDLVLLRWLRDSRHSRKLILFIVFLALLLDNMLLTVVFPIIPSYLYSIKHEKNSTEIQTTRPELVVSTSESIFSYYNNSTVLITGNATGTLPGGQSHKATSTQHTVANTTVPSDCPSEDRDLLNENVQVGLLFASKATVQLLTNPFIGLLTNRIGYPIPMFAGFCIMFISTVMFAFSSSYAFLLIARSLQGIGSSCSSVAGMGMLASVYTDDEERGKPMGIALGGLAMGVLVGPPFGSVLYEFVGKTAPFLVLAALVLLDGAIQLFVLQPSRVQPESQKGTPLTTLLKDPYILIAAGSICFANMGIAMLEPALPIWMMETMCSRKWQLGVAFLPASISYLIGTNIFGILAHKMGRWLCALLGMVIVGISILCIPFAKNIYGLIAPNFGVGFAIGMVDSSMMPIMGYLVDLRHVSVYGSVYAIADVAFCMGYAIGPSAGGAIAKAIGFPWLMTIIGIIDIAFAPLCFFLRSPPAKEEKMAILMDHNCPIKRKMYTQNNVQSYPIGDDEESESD", "UniProt Q01827, whole entry": "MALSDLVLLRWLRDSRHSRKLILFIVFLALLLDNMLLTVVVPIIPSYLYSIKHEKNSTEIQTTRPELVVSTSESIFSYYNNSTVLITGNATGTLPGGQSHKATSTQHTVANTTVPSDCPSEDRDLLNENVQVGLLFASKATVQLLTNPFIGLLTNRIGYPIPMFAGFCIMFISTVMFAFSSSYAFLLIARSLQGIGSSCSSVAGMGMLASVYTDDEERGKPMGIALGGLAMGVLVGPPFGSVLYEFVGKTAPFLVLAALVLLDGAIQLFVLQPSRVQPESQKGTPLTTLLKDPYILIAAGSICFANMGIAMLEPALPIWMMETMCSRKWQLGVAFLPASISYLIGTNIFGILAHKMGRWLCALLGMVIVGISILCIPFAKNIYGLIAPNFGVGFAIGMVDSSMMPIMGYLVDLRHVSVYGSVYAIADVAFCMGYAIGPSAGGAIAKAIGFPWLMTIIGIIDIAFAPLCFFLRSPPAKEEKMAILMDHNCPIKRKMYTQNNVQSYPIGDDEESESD", "UniProt Q01827, whole entry G308A": "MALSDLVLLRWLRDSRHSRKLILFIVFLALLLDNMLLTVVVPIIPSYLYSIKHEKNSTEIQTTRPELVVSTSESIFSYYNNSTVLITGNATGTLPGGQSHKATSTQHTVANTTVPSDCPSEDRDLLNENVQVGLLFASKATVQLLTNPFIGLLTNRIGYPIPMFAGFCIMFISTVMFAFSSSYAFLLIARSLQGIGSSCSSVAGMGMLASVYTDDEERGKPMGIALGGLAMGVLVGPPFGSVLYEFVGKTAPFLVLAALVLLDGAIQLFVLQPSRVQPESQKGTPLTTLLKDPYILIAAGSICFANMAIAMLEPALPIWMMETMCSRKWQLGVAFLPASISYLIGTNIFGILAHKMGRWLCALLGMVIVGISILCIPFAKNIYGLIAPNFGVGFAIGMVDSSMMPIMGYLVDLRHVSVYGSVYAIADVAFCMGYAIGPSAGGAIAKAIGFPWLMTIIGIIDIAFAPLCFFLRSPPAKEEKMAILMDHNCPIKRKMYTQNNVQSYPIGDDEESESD"}, "source": "BindingDB's records for doi:10.1074/jbc.M113.502971", "about": "(Hebrew University of Jerusalem, 2013)", "experiment_in_all_cases": "[3H]TBZOH Binding Assay", "conditions_in_all_cases": "pH 7.5; 25 °C", "key": {"[1]": {"biological_target": "Synaptic vesicular amine transporter [P314T] (Rat, UniProt Q01827, P314T)"}, "[2]": {"biological_target": "Synaptic vesicular amine transporter [G308P] (Rat, UniProt Q01827, G308P)"}, "[3]": {"biological_target": "Synaptic vesicular amine transporter [V41I] (Rat, UniProt Q01827, V41I)"}, "[4]": {"biological_target": "Synaptic vesicular amine transporter [V132G] (Rat, UniProt Q01827, V132G)"}, "[5]": {"biological_target": "Synaptic vesicular amine transporter [P314G] (Rat, UniProt Q01827, P314G)"}, "[6]": {"biological_target": "Synaptic vesicular amine transporter [V132A] (Rat, UniProt Q01827, V132A)"}, "[7]": {"biological_target": "Synaptic vesicular amine transporter [V41A] (Rat, UniProt Q01827, V41A)"}, "[8]": {"biological_target": "Synaptic vesicular amine transporter [P314L] (Rat, UniProt Q01827, P314L)"}, "[9]": {"biological_target": "Synaptic vesicular amine transporter [V41F] (Rat, UniProt Q01827, V41F)"}, "[10]": {"biological_target": "Synaptic vesicular amine transporter (Rattus norvegicus, UniProt Q01827)"}, "[11]": {"biological_target": "Synaptic vesicular amine transporter [G308A] (Rat, UniProt Q01827, G308A)"}}}
{"molecule": "COc1cc2c(cc1OC)C1CC(=O)C(CC(C)C)CN1CC2", "note": "(configuration not stated) [3-Isobutyl-9,10-dimethoxy-1,3,4,6,7,11b-hexahydro-pyrido[2,1-a]isoquinolin-2-one]", "values": [{"measurement": "IC50", "setting": "[1]", "result": "> 0.2", "unit": "µM"}, {"measurement": "Kd", "setting": "[1]", "result": "> 0.1", "unit": "µM"}, {"measurement": "IC50", "setting": "[2]", "result": 0.0145, "unit": "µM"}, {"measurement": "Kd", "setting": "[2]", "result": 0.002, "unit": "µM"}, {"measurement": "Kd", "setting": "[3]", "result": 0.004, "unit": "µM"}, {"measurement": "Kd", "setting": "[4]", "result": "> 0.1", "unit": "µM"}, {"measurement": "IC50", "setting": "[5]", "result": "> 0.2", "unit": "µM"}, {"measurement": "Kd", "setting": "[5]", "result": "> 0.1", "unit": "µM"}, {"measurement": "Kd", "setting": "[6]", "result": 0.0634, "unit": "µM"}, {"measurement": "Kd", "setting": "[7]", "result": 0.016, "unit": "µM"}, {"measurement": "IC50", "setting": "[8]", "result": "> 0.2", "unit": "µM"}, {"measurement": "Kd", "setting": "[8]", "result": "> 0.1", "unit": "µM"}, {"measurement": "Kd", "setting": "[9]", "result": "> 0.1", "unit": "µM"}, {"measurement": "IC50", "setting": "[10]", "result": 0.0083, "unit": "µM"}, {"measurement": "Kd", "setting": "[10]", "result": 0.0052, "unit": "µM"}, {"measurement": "IC50", "setting": "[11]", "result": "> 0.2", "unit": "µM"}, {"measurement": "Kd", "setting": "[11]", "result": "> 0.1", "unit": "µM"}]}
